Here are results for 1 compound from publication PMC8424648 (Cell Reports, 2021).

The chains behind the UniProt entries cited, without tags or fusion partners. Residues count along the entry.
UniProt P41594, 21-1212: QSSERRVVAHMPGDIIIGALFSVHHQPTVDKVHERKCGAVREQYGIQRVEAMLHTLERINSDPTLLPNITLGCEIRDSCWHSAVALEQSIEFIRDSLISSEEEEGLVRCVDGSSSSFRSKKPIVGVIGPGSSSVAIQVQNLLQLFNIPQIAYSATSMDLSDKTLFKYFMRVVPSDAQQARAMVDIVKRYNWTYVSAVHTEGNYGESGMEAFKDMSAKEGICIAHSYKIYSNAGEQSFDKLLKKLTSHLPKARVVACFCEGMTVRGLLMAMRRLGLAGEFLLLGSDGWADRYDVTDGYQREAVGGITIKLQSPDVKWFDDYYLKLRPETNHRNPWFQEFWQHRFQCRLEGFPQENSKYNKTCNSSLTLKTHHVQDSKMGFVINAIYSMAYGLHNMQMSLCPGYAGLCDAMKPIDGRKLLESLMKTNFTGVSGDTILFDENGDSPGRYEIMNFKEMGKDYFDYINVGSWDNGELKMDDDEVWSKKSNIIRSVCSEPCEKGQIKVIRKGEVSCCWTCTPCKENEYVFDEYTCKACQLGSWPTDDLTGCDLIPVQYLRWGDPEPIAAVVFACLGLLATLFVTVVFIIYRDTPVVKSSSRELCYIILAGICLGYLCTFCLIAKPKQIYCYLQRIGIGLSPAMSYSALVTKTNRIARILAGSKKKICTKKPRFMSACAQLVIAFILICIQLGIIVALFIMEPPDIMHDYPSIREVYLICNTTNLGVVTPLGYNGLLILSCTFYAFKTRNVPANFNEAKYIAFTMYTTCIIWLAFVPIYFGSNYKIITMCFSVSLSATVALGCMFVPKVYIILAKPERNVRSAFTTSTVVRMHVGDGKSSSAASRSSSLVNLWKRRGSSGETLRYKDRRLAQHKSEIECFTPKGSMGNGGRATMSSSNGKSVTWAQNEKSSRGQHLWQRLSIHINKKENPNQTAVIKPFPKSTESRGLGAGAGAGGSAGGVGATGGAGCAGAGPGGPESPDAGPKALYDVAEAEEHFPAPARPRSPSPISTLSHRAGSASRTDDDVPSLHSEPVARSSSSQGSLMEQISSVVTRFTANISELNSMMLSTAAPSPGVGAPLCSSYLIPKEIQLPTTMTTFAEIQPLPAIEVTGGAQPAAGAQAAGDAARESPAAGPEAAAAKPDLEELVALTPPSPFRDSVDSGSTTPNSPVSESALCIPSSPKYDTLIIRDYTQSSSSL
UniProt P41594, 21-856 T742A/S753A/T777A/I799A/A813L limits assumed: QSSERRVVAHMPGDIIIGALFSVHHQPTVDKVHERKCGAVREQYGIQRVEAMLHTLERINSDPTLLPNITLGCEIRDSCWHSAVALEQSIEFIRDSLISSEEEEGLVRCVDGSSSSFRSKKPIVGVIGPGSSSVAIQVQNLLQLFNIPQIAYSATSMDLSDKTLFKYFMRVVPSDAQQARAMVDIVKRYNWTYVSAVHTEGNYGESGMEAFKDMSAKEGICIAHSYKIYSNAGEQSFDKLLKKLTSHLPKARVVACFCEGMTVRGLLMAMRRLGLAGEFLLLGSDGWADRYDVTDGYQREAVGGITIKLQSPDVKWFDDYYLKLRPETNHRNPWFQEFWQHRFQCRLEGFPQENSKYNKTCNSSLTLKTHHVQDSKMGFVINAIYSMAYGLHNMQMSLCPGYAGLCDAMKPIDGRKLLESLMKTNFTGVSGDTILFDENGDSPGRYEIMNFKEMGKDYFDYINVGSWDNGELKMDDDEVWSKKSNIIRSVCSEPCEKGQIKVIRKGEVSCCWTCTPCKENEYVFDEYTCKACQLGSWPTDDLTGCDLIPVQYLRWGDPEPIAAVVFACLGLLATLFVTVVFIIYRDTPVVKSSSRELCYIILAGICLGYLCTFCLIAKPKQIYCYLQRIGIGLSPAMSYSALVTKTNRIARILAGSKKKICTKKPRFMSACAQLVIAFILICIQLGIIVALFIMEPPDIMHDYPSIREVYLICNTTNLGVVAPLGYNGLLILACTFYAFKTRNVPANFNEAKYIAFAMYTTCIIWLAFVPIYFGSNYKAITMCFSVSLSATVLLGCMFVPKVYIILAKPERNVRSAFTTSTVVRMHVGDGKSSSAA

The target in one assay is mGlu5 WT receptor (Homo sapiens, UniProt P41594). As to the kind of experiment: IP1 accumulation assay, mGlu5 WT. The assay is classed as cell-based.
The next assay has as its target mGlu5-5M (Homo sapiens, UniProt P41594, A813L/I799A/S753A/T742A/T777A). As to the kind of experiment: cell-based.

In general, IC50 refers to the concentration that inhibits the measured activity by half. Read a high IC50 as lower potency.

On to `Cc1cccc(C#Cc2ccccc2)n1` [MPEP, 2-Methyl-6-(phenylethynyl) pyridine], for which the IC50 against mGlu5 WT receptor is 22.9 nM; against mGlu5-5M, 2.19 nM.
